Consider 1 molecule from ChEMBL document CHEMBL5036359, “Repositioning Food and Drug Administration-Approved Drugs for Inhibiting Biliverdin IXβ Reductase B as a Novel Thrombocytopenia Therapeutic Target” (J Med Chem, 2022).

In experiment [1] the target is T1, Flavin reductase (NADPH) (Homo sapiens) (UniProt P30043).
T1 sequence (whole entry): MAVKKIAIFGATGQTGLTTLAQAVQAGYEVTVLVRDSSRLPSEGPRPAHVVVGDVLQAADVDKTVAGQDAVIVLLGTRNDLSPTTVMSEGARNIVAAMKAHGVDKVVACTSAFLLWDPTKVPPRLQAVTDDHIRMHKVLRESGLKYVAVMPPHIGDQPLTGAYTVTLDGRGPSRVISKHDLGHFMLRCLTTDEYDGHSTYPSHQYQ
Description: Binding affinity to human N-terminal His6-tagged and thrombin cleavage fused BLVRB expressed in Escherichia coli BL21 (DE3) assessed as change in enthalpy by isothermal titration calorimetry.

In experiment [2] the target is T1, Flavin reductase (NADPH) (Homo sapiens). Description: Binding affinity to human N-terminal His6-tagged and thrombin cleavage fused BLVRB expressed in Escherichia coli BL21 (DE3) assessed as change in gibbs free energy by isothermal titration calorimetry. (In general: In ITC the heat of successive injections is recorded.)

`O=C(O)c1cc(/N=N/c2ccc(O)c(C(=O)O)c2)ccc1O`: in experiment [1], the deltaH is -9.79 kcal/mol. Moreover, in experiment [2], the deltaG is -9.79 kcal/mol.
